This experiment addresses CLK2 (Cdc2-like kinase 2) (Homo sapiens, UniProt P49760). Nature of the experiment: Z'LYTE FRET peptide kinase assay. The following applies: read-out: CLK2 IC50; ATP and peptide substrate; 1% DMSO; room temperature, 60 min. An excerpt: Z'LYTE FRET peptide kinase assay on CLK2 (Cdc2-like kinase 2)

Amino acid sequences for entries named in this document (tags omitted).
UniProt P49760, whole entry: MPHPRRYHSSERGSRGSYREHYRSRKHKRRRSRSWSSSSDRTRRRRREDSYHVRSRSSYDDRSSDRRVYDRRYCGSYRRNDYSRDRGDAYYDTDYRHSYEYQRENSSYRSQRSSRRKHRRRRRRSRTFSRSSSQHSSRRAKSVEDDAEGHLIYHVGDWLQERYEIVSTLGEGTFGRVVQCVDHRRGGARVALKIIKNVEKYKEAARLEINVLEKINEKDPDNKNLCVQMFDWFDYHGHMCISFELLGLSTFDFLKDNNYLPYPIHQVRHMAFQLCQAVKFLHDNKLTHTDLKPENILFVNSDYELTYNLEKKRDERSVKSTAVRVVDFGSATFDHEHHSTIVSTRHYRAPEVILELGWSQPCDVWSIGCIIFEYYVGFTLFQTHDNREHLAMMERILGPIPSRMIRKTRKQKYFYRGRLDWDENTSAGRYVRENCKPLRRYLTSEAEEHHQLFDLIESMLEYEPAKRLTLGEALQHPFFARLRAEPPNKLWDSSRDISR

For one compound, IC50 results are on record in publication PMC11081522, “In silico identification of a novel Cdc2‐like kinase 2 (CLK2) inhibitor in triple negative breast cancer” (Protein Science : A Publication of the Protein Society, 2024).

With `Cc1nc(Nc2ccccc2)c2c(-c3ccccc3)c[nH]c2n1`, the IC50 (as a rule, the midpoint of a concentration-inhibition curve) was determined as 1780 nM.
